Results reported in publication PMC12416277, “Phytochemical alkaloids orchestrate immunometabolism against viral infections” (National Science Review, 2025).

Tested on: A549 cells
Assay: Confocal analysis of filipin-stained cholesterol distribution in A549 cells
Format: cell-based

B1: IFN-β: interferon-β used to treat A549 cells (protein, UniProt P01574 22-187, looked up)
Interferon beta: MSYNLLGFLQRSSNFQCQKLLWQLNGRLEYCLKDRMNFDIPEEIKQLQQFQKEDAALTIYEMLQNIFAIFRQDSSSTGWNETIVENLLANVYHQINHLKTVLEEKLEKEDFTRGKLMSSLHLKRYYGRILHYLKAKEYSHCAWTIVRVEILRNFYFINRLTGYLRN
- cholesterol distribution / lysosomal cholesterol accumulation: induced lysosome cholesterol accumulation
